# PubChem BioAssay AID1259318 (Sanford-Burnham Center for Chemical Genomics, 2017)
# By UniProt entry, the sequences of proteins in these tests, tags left out.
# UniProt P20393, whole entry, looked up: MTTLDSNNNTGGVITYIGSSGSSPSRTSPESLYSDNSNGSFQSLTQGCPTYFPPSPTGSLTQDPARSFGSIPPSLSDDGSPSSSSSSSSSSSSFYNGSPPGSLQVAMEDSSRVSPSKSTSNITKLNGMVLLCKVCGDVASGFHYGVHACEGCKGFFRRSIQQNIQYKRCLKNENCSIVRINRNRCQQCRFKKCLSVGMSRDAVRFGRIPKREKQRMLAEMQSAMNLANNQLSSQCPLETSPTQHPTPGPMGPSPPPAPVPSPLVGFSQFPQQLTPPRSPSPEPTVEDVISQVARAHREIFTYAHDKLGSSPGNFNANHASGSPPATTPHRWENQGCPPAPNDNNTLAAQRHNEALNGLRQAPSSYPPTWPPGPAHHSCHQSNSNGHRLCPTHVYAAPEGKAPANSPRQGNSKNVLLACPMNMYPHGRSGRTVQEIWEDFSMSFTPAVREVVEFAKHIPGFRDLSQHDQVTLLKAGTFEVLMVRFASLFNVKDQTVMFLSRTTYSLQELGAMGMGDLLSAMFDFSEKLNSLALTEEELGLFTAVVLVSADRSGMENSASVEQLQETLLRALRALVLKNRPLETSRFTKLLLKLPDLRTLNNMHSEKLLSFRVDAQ
# The list shows a part of the results, in another mix than the full data. The source made the active and inactive calls.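 The calls were made as follows: active = activity above about 14% (limit read from the data; passing the limit was not always enough); inactive = the rest.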
# Target: Nuclear receptor subfamily 1 group D member 1 (Homo sapiens) (UniProt P20393)
# Test: Rev-erbα–DNA interaction modulation – biochemical, FITC-DNA, fluorescence polarization, uHTS, primary screen (AID 1259318);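 also: 0% = DMSO wells with 35 nM protein and 100% = DMSO wells with 750 nM protein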
# Details: Rev-erbα–FITC-DNA binding, 90 min, at 10 µM, stronger effect = higher value
row,SMILES,activity
1,CN(CCCl)CCCl,inactive: -0.7%
2,CCC(=O)N(c1ccccc1)C1(COC)CCN(CCc2cccs2)CC1,inactive: 2.08%
3,CCC(=O)N(c1ccccc1)C1(COC)CCN(CCn2nnn(CC)c2=O)CC1,inactive: 5.68%
